Series [1] is described as follows: Lymphatic Transport Assay in Conscious Rats. The following applies: for % Dose in Lymph: oral gavage, lymph collected up to 24 hr.
Series [2] is described as follows: In vitro Release of Agomelatine from Prodrugs in human plasma supplemented with lipoprotein lipase (LPL). The following applies: for Percentage of Agomelatine in Solution: 40 μM prodrug, human plasma with LPL 200-12,000 units/mL, 37 °C, free agomelatine at 180 min timepoint; for levels of free agomelatine in human plasma supplemented with LPL: 180 min timepoint.
Series [3] relates to recombinant human monoacylglyceride lipase (rhMAGL). As to the kind of experiment: In Vitro Monoglyceride Stability Evaluation with Monoacylglyceride Lipase. The following applies: score −10 (100% monoglyceride loss) to 10 (100% monoglyceride remaining), scores above 10 given as 10; BSA 10 mg/mL, LPL 300 units/mL, rhMAGL 0-0.5 μg/mL, 37 °C, 0-180 minutes.
The nature of series [4]: Pharmacokinetic Studies in Non-human Primates (plasma exposure of agomelatine after oral dosing). The settings on record: for AUC (plasma exposure of agomelatine): 1 mg/kg agomelatine equivalent for the prodrugs (SEDDS).
Series [5] concerns cytochrome P450 isoenzymes. The settings on record: oral; cited from earlier work.
For series [6] the following is noted: patients receiving agomelatine, cited from earlier work.
The subject of another series is MT1 receptor. The settings on record: cited from earlier work.
A further series concerns MT2 receptor. The settings on record: cited from earlier work.
The subject of the next series is 5-HT2C. The settings on record: cited from earlier work.
Where [7] appears, read: % dose in lymph vs AGM (AGM in oleic acid/Tween 80), prodrug in SEDDS formulation.
Setting [8] is: formulated in SEDDS formulation (27% Peceol, 48% Cremophor RH40, 25% Sesame Oil).
Where [9] appears, read: formulated in oleic acid/Tween 80 formulation.
The mark [10] stands for this setting: % dose in lymph vs AGM, oleic acid/Tween 80 formulation.

Molecules are shown by their SMILES. Like-named read-outs stand apart in the source and are kept apart here. Marks after values point to notes of the source that are not given here.

Take `CCCCCCCC(=O)OCC(COC(=O)CCCCCCC)OC(=O)CC(C)(C)CCC(=O)OCOC(=O)N(CCc1cccc2ccc(OC)cc12)C(C)=O`: the “Approximate Fold Change Compared to AGM” value in series [1] (setting [7]) is on record as 300 fold. In addition, in series [1] (setting [8]), the “% Dose in Lymph” value is 12** %. In series [2], the “Percentage of Agomelatine in Solution” value was “A (>25%)”. Moreover, in series [3], the “Monoacylglyceride Stability” value came to 10.

Consider `CCCCCCCC(=O)OCC(COC(=O)CCCCCCC)OC(=O)CC(C)(C)CCCC(=O)OCOC(=O)N(CCc1cccc2ccc(OC)cc12)C(C)=O`, for which, in series [1] (setting [7]), the “Approximate Fold Change Compared to AGM” value came to 550 fold. The “% Dose in Lymph” value in [1] (setting [8]) is given as 22** %. In addition, in series [2], the “Percentage of Agomelatine in Solution” value is listed as “A (>25%)”. Moreover, the “Monoacylglyceride Stability” value in series [3] stood at 8. Moreover, the “AUC (plasma exposure of agomelatine)” value in series [4] (oral) came to 0.194 µM·h.

As to `CCCCCCCC/C=C\CCCCCCCC(=O)OCC(COC(=O)CCCCCCC/C=C\CCCCCCCC)OC(=O)CC(C)(C)CC(=O)OC(C)OC(=O)N(CCc1cccc2ccc(OC)cc12)C(C)=O` (stereo not shown), the “Percentage of Agomelatine in Solution” value in [2] is on record as “C (1-4.99%)”. In addition, the “Monoacylglyceride Stability” value in [3] is recorded as 10.

With `CCCCCCCC/C=C\CCCCCCCC(=O)OCC(COC(=O)CCCCCCC/C=C\CCCCCCCC)OC(=O)CC1(CC(=O)OCOC(=O)N(CCc2cccc3ccc(OC)cc23)C(C)=O)CCCCC1`, the “Percentage of Agomelatine in Solution” value in series [2] is on record as “C (1-4.99%)”.

On to `CCCCCCCC(=O)OCC(COC(=O)CCCCCCC)OC(=O)CC(C)(C)CCC(C)(C)CC(=O)OCOC(=O)N(CCc1cccc2ccc(OC)cc12)C(C)=O`, for which the “Approximate Fold Change Compared to AGM” value in series [1] (setting [7]) worked out at 1075 fold. In [1] (setting [8]), the “% Dose in Lymph” value is recorded as 43** %. Further, the “Percentage of Agomelatine in Solution” value in series [2] is “A (>25%)”.

As to `COc1ccc2cccc(CCNC(C)=O)c2c1`, in series [1] (setting [9]), the “% Dose in Lymph” value is given as 0.04* %. Further, the “agomelatine detected in the plasma” value in series [4] (agomelatine alone administered orally) was “no agomelatine was detected in the plasma”. Further, the “AUC (plasma exposure of agomelatine)” value in series [4] (oral) is reported as “Not Detected”. Moreover, the “metabolized by cytochrome P450 isoenzymes in the liver” value in [5] is “up to 90%”. For the same molecule, the figures for the liver toxicity entry in series [6] and in [6] (listed as agomelatine) were “serious liver toxicity concerns” and “liver toxicity concerns in some patients receiving agomelatine”, respectively. Besides, in the series on MT1 receptor, the “MT1 receptor agonism” value is “potent MT1 and MT2 receptor agonist”. Moreover, the “MT2 receptor agonism” value in the series with MT2 receptor was “potent MT1 and MT2 receptor agonist”. The figures for the “5-HT2C antagonism” value in the series with 5-HT2C and in the series with 5-HT2C (listed as agomelatine) were 5-HT2C antagonist and “antagonist of 5-HT2c”, respectively.

Turning to `CCCCCCCC(=O)OCC(COC(=O)CCCCCCC)OC(=O)C(C)(C)CCCCC(C)(C)C(=O)OCOC(=O)N(CCc1cccc2ccc(OC)cc12)C(C)=O`, the “Approximate Fold Change Compared to AGM” value in series [1] (setting [7]) is given as 1350 fold. Moreover, in [1] (setting [8]), the “% Dose in Lymph” value is reported as 54** %. Further, the “Percentage of Agomelatine in Solution” value in series [2] is “A (>25%)”. Moreover, in series [3], the “Monoacylglyceride Stability” value is 10. Besides, the “AUC (plasma exposure of agomelatine)” value in [4] (oral) was found to be 0.156 µM·h.

For the molecule `CCCCCCCC(=O)OCC(COC(=O)CCCCCCC)OC(=O)CC(C)(C)CC(=O)OCOC(=O)N(CCc1cccc2ccc(OC)cc12)C(C)=O`, the “Approximate Fold Change Compared to AGM” value in series [1] (setting [10]) is recorded as 1400 fold. Besides, the “% Dose in Lymph” value in series [1] (setting [9]) is reported as 57* %. For the same molecule, the “AUC (plasma exposure of agomelatine)” value in [4] (oral) turned out to be 0.207 µM·h.

In the case of `CCCCCCCC/C=C\CCCCCCCC(=O)OCC(COC(=O)CCCCCCC/C=C\CCCCCCCC)OC(=O)CC1(CC(=O)OCOC(=O)N(CCc2cccc3ccc(OC)cc23)C(C)=O)CCCC1`, the “Percentage of Agomelatine in Solution” value in [2] is listed as “B (5-25%)”.

In the case of `CCCCCCCC(=O)OCC(COC(=O)CCCCCCC)OC(=O)CC(C)(C)CCCCC(=O)OCOC(=O)N(CCc1cccc2ccc(OC)cc12)C(C)=O`, in [1] (setting [7]), the “Approximate Fold Change Compared to AGM” value worked out at 400 fold. Also, in series [1] (setting [8]), the “% Dose in Lymph” value was 16** %. Besides, the “Percentage of Agomelatine in Solution” value in series [2] was “A (>25%)”. In addition, in series [3], the “Monoacylglyceride Stability” value was −7.

For the molecule `CCCCCCCC(=O)OCC(COC(=O)CCCCCCC)OC(=O)C(C)(C)CCCCCCC(C)(C)C(=O)OCOC(=O)N(CCc1cccc2ccc(OC)cc12)C(C)=O`, the “Approximate Fold Change Compared to AGM” value in [1] (setting [7]) stood at 1000 fold. The “% Dose in Lymph” value in [1] (setting [8]) is 40** %. Besides, the “Percentage of Agomelatine in Solution” value in series [2] is recorded as “A (>25%)”. In series [3], the “Monoacylglyceride Stability” value was 6.

Take `CCCCCCCC/C=C\CCCCCCCC(=O)OCC(COC(=O)CCCCCCC/C=C\CCCCCCCC)OC(=O)CC(C)(C)CC(=O)OCOC(=O)N(CCc1cccc2ccc(OC)cc12)C(C)=O`: the “Approximate Fold Change Compared to AGM” value in [1] (setting [10]) came to 1500 fold. In addition, the “% Dose in Lymph” value in series [1] (setting [9]) is reported as 61* %. Further, in [2], the “Percentage of Agomelatine in Solution” value was “A (>25%)” and the “levels of free agomelatine in human plasma supplemented with LPL” value (shortened to “levels of free agomelatine”) is recorded as “high levels of free agomelatine”. Further, in series [3], the “Monoacylglyceride Stability” value turned out to be 10.

Regarding `CCCCCCCC(=O)OCC(COC(=O)CCCCCCC)OC(=O)C(C)(C)CCC(=O)OCOC(=O)N(CCc1cccc2ccc(OC)cc12)C(C)=O`, in [2], the “Percentage of Agomelatine in Solution” value was “A (>25%)”. The “Monoacylglyceride Stability” value in [3] is listed as 4.

For `CCCCCCCC(=O)OCC(COC(=O)CCCCCCC)OC(=O)CC(C)(C)CCCCCCC(=O)OCOC(=O)N(CCc1cccc2ccc(OC)cc12)C(C)=O`, the “Approximate Fold Change Compared to AGM” value in [1] (setting [7]) is given as 225 fold. Besides, the “% Dose in Lymph” value in series [1] (setting [8]) was 9** %. In series [2], the “Percentage of Agomelatine in Solution” value was “A (>25%)”. In addition, the “Monoacylglyceride Stability” value in [3] was −10.

For `CCCCCCCC(=O)OCC(COC(=O)CCCCCCC)OC(=O)C(C)(C)CCCCCCCCC(C)(C)C(=O)OCOC(=O)N(CCc1cccc2ccc(OC)cc12)C(C)=O`, the “Percentage of Agomelatine in Solution” value in [2] is recorded as “B (5-25%)”. For the same molecule, the “Monoacylglyceride Stability” value in series [3] worked out at 8.

For the molecule `CCCCCCCC(=O)OCC(COC(=O)CCCCCCC)OC(=O)C(C)(C)CCCC(=O)OCOC(=O)N(CCc1cccc2ccc(OC)cc12)C(C)=O`, the “Percentage of Agomelatine in Solution” value in series [2] was “A (>25%)”. Further, the “Monoacylglyceride Stability” value in series [3] was determined as 9.

Regarding `CCCCCCCC/C=C\CCCCCCCC(=O)OCC(COC(=O)CCCCCCC/C=C\CCCCCCCC)OC(=O)CC1(CC(=O)OCOC(=O)N(CCc2cccc3ccc(OC)cc23)C(C)=O)CC1`, the “Approximate Fold Change Compared to AGM” value in [1] (setting [10]) is 1800 fold. In [1] (setting [9]), the “% Dose in Lymph” value is 72* %. In addition, in [2], the “Percentage of Agomelatine in Solution” value is given as “A (>25%)” and the “levels of free agomelatine” value is recorded as “high levels of free agomelatine”. In addition, the “Monoacylglyceride Stability” value in series [3] was found to be 6.

Regarding `CCCCCCCC/C=C\CCCCCCCC(=O)OCC(COC(=O)CCCCCCC/C=C\CCCCCCCC)OC(=O)CC(C)(C)CCC(C)(C)CC(=O)OCOC(=O)N(CCc1cccc2ccc(OC)cc12)C(C)=O`, the “Percentage of Agomelatine in Solution” value in series [2] was “A (>25%)”. Besides, the “Monoacylglyceride Stability” value in series [3] was found to be 10. The “AUC (plasma exposure of agomelatine), dose adjusted” value in series [4] (oral, delivered dose 2.9x lower than standard, AUC dose adjusted to equivalent of 1 mg/kg agomelatine) is reported as 288* nmol*h/L.

For the molecule `CCCCCCCC/C=C\CCCCCCCC(=O)OCC(COC(=O)CCCCCCC/C=C\CCCCCCCC)OC(=O)CC1(CC(=O)OCOC(=O)N(CCc2cccc3ccc(OC)cc23)C(C)=O)CCC1`, in series [2], the “Percentage of Agomelatine in Solution” value was “A (>25%)” and the “levels of free agomelatine” value is given as “high levels of free agomelatine”.

Source of the values: patent US20260382725A1, “LIPID PRODRUGS OF AGOMELATINE” (published 2026).
